From ChEMBL document CHEMBL1127385, “Synthesis and diuretic activity of alkyl- and arylguanidine analogs of N,N'-dicyclohexyl-4-morpholinecarboxamidine in rats and dogs” (J Med Chem, 1994)

Test system: Rattus norvegicus
Test: Ratio of Total electrolytic excretion of sodium and potassium in urine of rats after peroral administration of 0 uM/Kg of drug
Type: ADME, organism-based
Details: in vivo, po

NS(=O)(=O)c1cc(C(=O)O)c(NCc2ccco2)cc1Cl [FUROSEMIDE]
Ratio: 2.7
